Experimental data reported in patent publication US20090054305A1, “Mixtures of Amylin and Insulin” (Novo Nordisk A/S, priority 2006, published 2009).

How the values were obtained:
[1] = treated test animals, e.g. provoking marked hyperlactemia followed by hyperglycemia; cited from earlier work
[2] = ThT fibrillation assay (physical stability); format: physicochemical; conditions: 174 mM glycerol, 16 mM phenol, 16 mM m-cresol, 30 mM sodium acetate, pH 3.5; 37° C.
Description: Low physical stability of a peptide may lead to amyloid fibril formation, which is observed as well-ordered, thread-like macromolecular structures in the sample eventually resulting in gel formation. In a ThT fibrillation assay application a small molecule indicator probe is used. Thioflavin T (ThT) has a distinct fluorescence signature when binding to fibrils (Naiki et al. (1989) Anal. Biochem. 177, 244-249; LeVine (1999) Methods. Enzymol. 309, 274-284).
The time course for fibril formation can be described by a sigmoidal curve as shown in FIG. 10 with the following expression (Nielsen et al. (2001) Biochemistry 40, 6036-6046):
Here, F is the ThT fluorescence at the time t. The constant t0 is the time needed to reach 50% of maximum fluorescence. The two important parameters describing fibril formation are the lag-time calculated by t0−2τ and the apparent rate constant kapp=1/τ. […]
Incubation at given temperature, shaking and measurement of the ThT fluorescence emission were done in a Fluoroskan Ascent FL fluorescence platereader (Thermo Labsystems). […] Fluorescence measurement was done using excitation through a 444 nm filter and measurement of emission through a 485 nm filter.
Each run was initiated by incubating the plate at the assay temperature for 10 min. The plate was measured every 20 minutes for a desired period of time. […]

[3] = compared to human amylin; cited from earlier work

fibrillation / ThT fluorescence signal throughout the assay time [2]: inert towards fibrillation
SMILES: CC[C@H](C)[C@H](NC(=O)[C@@H]1CCCN1C(=O)CNC(=O)[C@H](Cc1ccccc1)NC(=O)[C@H](CC(N)=O)NC(=O)[C@H](CC(N)=O)NC(=O)[C@H](CO)NC(=O)[C@H](CO)NC(=O)[C@H](Cc1c[nH]cn1)NC(=O)[C@@H](NC(=O)[C@H](CC(C)C)NC(=O)[C@H](Cc1ccccc1)NC(=O)[C@H](CC(N)=O)NC(=O)[C@H](C)NC(=O)[C@H](CC(C)C)NC(=O)[C@H](CCCNC(=N)N)NC(=O)[C@H](CCC(N)=O)NC(=O)[C@@H](NC(=O)[C@H](C)NC(=O)[C@@H]1CSSC[C@H](NC(=O)[C@@H](N)CCCCN)C(=O)N[C@@H](CC(N)=O)C(=O)N[C@@H]([C@@H](C)O)C(=O)N[C@@H](C)C(=O)N[C@@H]([C@@H](C)O)C(=O)N1)[C@@H](C)O)C(C)C)C(=O)N[C@@H](CC(C)C)C(=O)N1CCC[C@H]1C(=O)N1CCC[C@H]1C(=O)N[C@H](C(=O)N[C@@H](CC(N)=O)C(=O)N[C@H](C(=O)NCC(=O)N[C@@H](CO)C(=O)N[C@@H](CC(N)=O)C(=O)N[C@H](C(=O)N[C@@H](Cc1ccc(O)cc1)C(N)=O)[C@@H](C)O)C(C)C)[C@@H](C)O [^25, 28, 29Pro-h-amylin]
amylin activity in vivo [1]: amylin activity in vivo
solubility and stability characteristics [3]: more desirable solubility and stability characteristics
